Measured values reported in US7438931B2, “Methods and compositions for the treatment of angiogenic diseases” (The Regents of The University of Michigan, priority 1998, dated 2008).

Columns and labels:
metastatic solid tumors = test: Phase I trial: clinical and radiologic response of metastatic cancer; assay type: in vivo, human; conditions: TM plus IFN-α 500,000 units subcutaneously twice a day and radiotherapy
Text: Patients with effusions or bone marrow involvement as the only manifestations of disease, and those who had severe intercurrent illness requiring intensive management or were transfusion dependent, were excluded. […] Other requirements were demonstrable progression of disease in the previous 3 months, after standard treatments such as surgery, chemotherapy, radiotherapy, and/or immunotherapy, or progressive disease after declining conventional treatment modalities.
Six patients were to be enrolled at each dose level. After 4 patients were enrolled at level I, if one patient experienced dose-limiting toxicity (DLT) (defined as Hct<80% of baseline), 2 more patients were enrolled at level I. If no DLT was observed, patients were enrolled at the next dose level. […]
Extent of disease was evaluated at entry, at the point of achievement of copper deficiency, defined as Cp at or below 20% of baseline, and every 10-12 weeks thereafter. […]
Blood flow was measured by ultrasound in select patients with accessible lesions, at the time they became copper deficient, and at variable intervals of 8-16 weeks thereafter. […] The scanning and vascularity quantification techniques were as previously described (Carson et al., 1998; LeCarpentier et al., 1999).

Phase I trial: toxicity = assay type: in vivo, human; conditions: added modality during long-term TM
Text: Six patients were to be enrolled at each dose level. After 4 patients were enrolled at level I, if one patient experienced dose-limiting toxicity (DLT) (defined as Hct<80% of baseline), 2 more patients were enrolled at level I. If no DLT was observed, patients were enrolled at the next dose level. Treatment was allowed to continue beyond induction of target copper deficiency, if the patients experienced a partial or complete clinical response or achieved clinical stable disease by the following definitions. Complete response is defined as the disappearance of all clinical and laboratory signs and symptoms of active disease. Partial response is defined as a 50% or greater reduction in the size of measurable lesions defined by the sum of the products of the longest perpendicular diameters of the lesions, with no new lesions or lesions increasing in size. […]
Complete blood counts, liver and renal function tests, urinalyses, and Cp level (by the oxidase method) were performed weekly for 16 weeks, then bi-weekly. […] Toxicity was evaluated using the National Cancer Institute Common Toxicity Criteria (Table 3). […]

Q: What does the source list for “IFN-α: interferon-alpha 2 [reference compound]”?
A: duration of disease stabilization, two angiosarcoma patients (metastatic solid tumors): over 60 days; toxicity of combination with TM (Phase I trial: toxicity): without apparent exacerbation of toxicity
